This series can be described thus: IVIS imaging of Cy7 albumin conjugates in tumor-bearing mice. The settings on record: single dose 1 mg/kg Cy7 equivalent, tail vein. Format: in vivo. The protocol: FIG. 12: IVIS imaging of tumor-bearing mice after administration of a single dose of Cy7-rHSA (Cy7: rHSA=1:1) and Cy7 (3)-rHSA (Cy7: rHSA=3:1) at 1 mg/kg (Cy7 equivalent amount) through tail vein injection. (Left: back view; right: ventral view).
Tissue distribution: Next, the distribution of MMAE delivered in free drug form and albumin-drug conjugates were measured in select tissues (FIG. 7). In each group, mice were given a single dose of equivalent MMAE and after 24 hours dosing, released MMAE and total MMAE were both measured in homogenized tissues using a highly sensitive LC-MS method. […] Accumulation of free MMAE in MMAE-MAL group was slightly lower (2.2% ID/g), although the difference was not statistically different (p>0.1). […] The differences between free MMAE and total MMAE in healthy tissues indicate that albumin-drug conjugates were still circulating in these tissues in the conjugated form. They were stable in normal tissues but can be efficiently cleaved and released MMAE at the tumor site. Thereby, significant improvement of accumulation of MMAE in tumor was observed. […] In tumor-bearing mice in different treatment arms, we measured the amount of free MMAE and total MMAE present in tumor tissue at different timepoints and calculated the amount over time.

The text below walks through data of patent publication US20230218773A1 (priority 2020, published 2023).

Take “Cy7(1): Cy7 albumin conjugate with dye to albumin ratio of 1”: the “signal at tumor site (IVIS imaging)” value is on record as “strong signals”.
